Data published in publication PMC9448818, “Effects of CYP2C19 and CYP2D6 gene variants on escitalopram and aripiprazole treatment outcome and serum levels: results from the CAN-BIND 1 study” (Translational Psychiatry, 2022).

Tested on: patients with MDD
Assay: Toronto side effects scale (TSES), treatment-related side effects
Assay type: in vivo, human
Details: vs NM; Phase II
Source text: The Toronto side effects scale (TSES), administered on Weeks 2, 4, 10, 12, and 16, is a clinical instrument designed to assess the frequency and severity of treatment-related side effects on 5-point Likert scales. The “intensity” score is derived by multiplying the frequency and severity of each side effect. The items assessed can be broadly categorized into the central nervous system (CNS), gastrointestinal (GI), and sexual side effects, as well as weight gain (Table S1)[28]. […]
We assessed the dichotomous measures of response (responder vs. non-responder and remitter vs. non-remitter) and side effects (present vs. absent) for the last timepoint in Phases I and II using logistic regression models with total MADRS score at baseline included as a covariate. Given the availability of biweekly MADRS scores and multiple time points for TSES, continuous measures of response (percentage of symptom improvement) and side effects (intensity of each category of side effects) were assessed using linear mixed-effects models that included interactions of CYP2C19 and CYP2D6 metabolizer groups with timepoint, and recruitment site and individual as random effects variables. […]

For `CN(C)CCC[C@@]1(c2ccc(F)cc2)OCc2cc(C#N)ccc21` [ESC, Escitalopram], the “Odds ratio, presence of tremor, CYP2D6 IM+PM” value was 1.99.
